Data reported in patent publication US10537555B2, “Complex of angiotensin receptor antagonist and neutral endopeptidase inhibitor” (CHENGDU EASTON BIOPHARMACEUTICALS CO., LTD., priority 2015, dated 2020).

Key:
[1] = for Change of HPLC purity in stability test: 10 days at 60° C., 25° C. RH90%±5%, or 4500 lux±500 lux
[2] = Hygroscopy test (25±1° C., RH 80%±2%, 24 hours); assay type: physicochemical; conditions: for Appearance at Hour Twenty-Four / Weight Increase: 24 hours
Source text: The results are in Table XII.

[3] = in vivo pharmacokinetic studies in Beagle dogs; conditions: single oral administration of the drug capsule; for CMAX and AUC of valsartan, AHU377 and LBQ657 relative to the comparative example: P<0.05
Source text: Example 1 in capsules: the capsules containing Example 1, provided by the Department of Drug Formulations of Chengdu Eastern Pharma Co., dosage 312 μmol/capsule, Lot: 150901;
Example 3 in capsules: the capsules containing Example 3, provided by the Department of Drug Formulations of Chengdu Eastern Pharma Co., dosage 312 μmol/capsule, Lot: 150901;
Example 5 in capsules: the capsules containing Example 5, provided by the Department of Drug Formulations of Chengdu Eastern Pharma Co., dosage 312 μmol/capsule, Lot: 150901;
Four male Beagle dogs, body weight 8±2 kg, age 10-12 months, purchased from Chengdu Dashuo Biological Technology Co., Ltd., Certificate of Conformity: SCXK (Sichuan) 2013-24.
The drug administration period: using Beagle dogs in a 4×4 crossover pilot study. There is a total of 4 test cycles. In each cycle 4 dogs were administered 4 different drug capsules. After each cycle, paused for two days to let the medications fully metabolize before starting the next experiment cycle.
In every cycle, 1 ml blood sample was collected in EDTA-K2 tubes at 5 min, 15 min, 0.5 h, 1 h, 2 h, 3 h, 4 h, 6 h, 8 h, 10 h, 24 h, 36 h, 48 h prior to and after administering the single dosage into the forelimb or hind limb veins and centrifuged for 10 min at 3000 r/min. Plasma was separated and kept in a freezer at −70° C.
Evenly mixing 50 μl plasma with 5 μl of a working solution or a blank diluent, adding 150 μl precipitating agent acetonitrile that contains an internal standard, vortex mixed for 2 minutes, centrifuged for 5 minutes at 12000 rpm. 100 μl supernatant was mixed with 100 μl pure water. The injection sample size was 10 μl.
SPSS was used for statistical analysis and experimental data was expressed with the mean plus or minus standard deviation. Comparison between the multiple sets of data used analysis of variance (ANOVA), while Least Significant Difference (LSD) Test was employed to compare two data points.

[4] = Equilibrium solubility test at 37° C.; conditions: for Equilibrium solubility pH 3.5: pH=3.5 ammonium acetate/ammonia buffer solution

Compound | Purity, AHU377 ([1]; Humidity 25° C. RH90%, 0 days) | Purity, Valsartan ([1]; Humidity 25° C. RH90%, 0 days) | Purity, AHU377 ([1]; Humidity 25° C. RH90%, 5 days) | Purity, AHU377 ([1]; Humidity 25° C. RH90%, 10 days) | Purity, AHU377 ([1]; Light 4500Lux, 0 days) | Purity, Valsartan ([1]; Light 4500Lux, 0 days) | Purity, AHU377 ([1]; Light 4500Lux, 5 days) | Purity, AHU377 ([1]; Light 4500Lux, 10 days) | Purity, AHU377 ([1]; Temperature 60° C., 0 days) | Purity, Valsartan ([1]; Temperature 60° C., 0 days) | Purity, AHU377 ([1]; Temperature 60° C., 5 days) | Purity, AHU377 ([1]; Temperature 60° C., 10 days) | Appearance at Hour Twenty-Four [2] | Weight Increase [2] [%] | Appearance at Hour Zero [2] | Change of HPLC purity in stability test [1] | Purity, Valsartan ([1]; Humidity 25° C. RH90%, 5 days) | Purity, Valsartan ([1]; Humidity 25° C. RH90%, 10 days) | Purity, Valsartan ([1]; Light 4500Lux, 5 days) | Purity, Valsartan ([1]; Light 4500Lux, 10 days) | also measured
CCCCC(=O)N(Cc1ccc(-c2ccccc2-c2nn[n-]n2)cc1)C(C(=O)[O-])C(C)C.CCCCC(=O)N(Cc1ccc(-c2ccccc2-c2nn[n-]n2)cc1)C(C(=O)[O-])C(C)C.CCOC(=O)C(C)CC(Cc1ccc(-c2ccccc2)cc1)NC(=O)CCC(=O)[O-].CCOC(=O)C(C)CC(Cc1ccc(-c2ccccc2)cc1)NC(=O)CCC(=O)[O-].O.O.O.O.O.[Na+].[Na+].[Na+].[Na+].[Na+].[Na+] (centres unmarked) [Comparative Example, reference compound] | 62.91 | 37.09 | 62.89 | 62.91 | 62.91 | 37.09 | 62.84 | 62.81 | 62.91 | 37.09 | 62.81 | 62.76 |  |  |  |  |  |  |  |  | 
[3-((1S, 3R)-1-biphenyl-4-ylmethyl-3-ethoxycarbonyl-1-butylcarbamoyl)propionate-(S)-3′-methyl-2′-(pentanoyl {2″-(tetrazol-5-ylate)biphenyl-4′-ylmethyl}amino)butyrate]6Ca2Na14.15H2O [Example 3] | 62.87 | 37.13 | 62.82 | 62.77 | 62.87 | 37.13 | 62.84 | 62.82 | 62.87 | 37.13 | 62.81 | 62.77 | Off white powder | 4.55 | Off white powder | only slight decreases in purities | 37.12 | 37.08 | 37.09 | 37.07 | TMAX of valsartan relative to the comparative example [3]: moved significantly earlier; CMAX and AUC of valsartan, AHU377 and LBQ657 relative to the comparative example [3]: clearly higher than that of the comparative sample; Purity, Valsartan ([1]; Temperature 60° C., 5 days): 37.11; Purity, Valsartan ([1]; Temperature 60° C., 10 days): 37.08; Equilibrium solubility pH 1.0 ([4]; pH=1.0 (0.1 mol/L) hydrochloric acid): 0.06 mg/mL
[3-((1S, 3R)-1-biphenyl-4-ylmethyl-3-ethoxycarbonyl-1-butylcarbamoyl)propionate-(S)-3′-methyl-2′-(pentanoyl {2″-(tetrazol-5-ylate)biphenyl-4′-ylmethyl}amino)butyrate]6Ca2Na14.15H2O [Example 4] | 62.89 | 37.11 | 62.87 | 62.84 | 62.89 | 37.11 | 62.86 | 62.81 | 62.89 | 37.11 | 62.82 |  | Off white powder | 4.51 | Off white powder | only slight decreases in purities | 37.10 | 37.08 | 37.08 | 37.05 | Purity, Valsartan ([1]; Temperature 60° C., 5 days): 37.07; Purity, Valsartan ([1]; Temperature 60° C., 10 days): 37.01
[3-((1S, 3R)-1-biphenyl-4-ylmethyl-3-ethoxycarbonyl-1-butylcarbamoyl)propionate-(S)-3′-methyl-2′-(pentanoyl {2″-(tetrazol-5-ylate)biphenyl-4′-ylmethyl}amino)butyrate]6Ca3Na12.15H2O [Example 5] | 62.92 | 37.08 | 62.86 | 62.82 | 62.92 | 37.08 | 62.86 | 62.79 | 62.92 | 37.08 | 62.83 | 62.72 | Off white powder | 2.12 | Off white powder | only slight decreases in purities | 36.99 | 37.01 | 37.06 | 36.98 | CMAX and AUC of valsartan, AHU377 and LBQ657 relative to the comparative example [3]: clearly higher than that of the comparative sample; Purity, Valsartan ([1]; Temperature 60° C., 5 days): 37.04; Purity, Valsartan ([1]; Temperature 60° C., 10 days): 36.97
[3-((1S, 3R)-1-biphenyl-4-ylmethyl-3-ethoxycarbonyl-1-butylcarbamoyl)propionate-(S)-3′-methyl-2′-(pentanoyl {2″-(tetrazol-5-ylate)biphenyl-4′-ylmethyl}amino)butyrate]6Ca3Na12.15H2O [Example 6] | 62.90 | 37.10 | 62.83 | 62.78 | 62.90 | 37.10 | 62.81 | 62.73 | 62.90 | 37.10 | 62.82 | 62.77 | maintained its appearance; also recorded: Off white powder | 2.09 | Off white powder | only slight decreases in purities | 37.03 | 36.96 | 37.04 | 36.96 | Purity, Valsartan ([1]; Temperature 60° C., 5 days): 37.01; Purity, Valsartan ([1]; Temperature 60° C., 10 days): 36.95; Equilibrium solubility pH 3.5 [4]: 0.45 mg/mL; Equilibrium solubility Water ([4]; water): 3740 µg/mL
[3-((1S, 3R)-1-biphenyl-4-ylmethyl-3-ethoxycarbonyl-1-butylcarbamoyl)propionate-(S)-3′-methyl-2′-(pentanoyl {2″-(tetrazol-5-ylate)biphenyl-4′-ylmethyl}amino)butyrate]6CaNa16.15H2O [Example 2] | 62.88 | 37.12 | 62.86 | 62.82 | 62.88 | 37.12 | 62.84 | 62.80 | 62.88 | 37.12 | 62.89 | 62.77 | Off White powder | 6.98 | Off white powder | only slight decreases in purities | 37.11 | 37.08 | 37.11 | 37.08 | Purity, Valsartan ([1]; Temperature 60° C., 5 days): 37.11; Purity, Valsartan ([1]; Temperature 60° C., 10 days): 37.06; Equilibrium solubility pH 3.5 [4]: 0.51 mg/mL

“Also recorded” adds a separate entry of the source. Where two headings read alike, the source gives them in different places.
